{
  "source": "patent US20110236822A1",
  "about": "“METHOD OF TREATING SEASONED DEVELOPER SOLUTION” (priority 2010, published 2011)",
  "assay": "Treatment of IR dye with oxidative and reducing reagents to degrade the dye (TABLE I)",
  "assay_type": "physicochemical",
  "conditions": "0.3% IR dye 66e in methanol; Heat",
  "data": [
    {"smiles": "CC(=O)OOC(C)(C)C", "values": [
      {"measurement": "Change Noticed", "value": "Dye bleached pink"}
    ]}
  ]
}
